Binding of CDR-mutated scFvs to a peptide of the spike HR2 region

The measurements come from Li et al. 2023 (doi:10.1038/s41467-023-39022-2) through the FLAb antibody collection.

The target is the same throughout: PDVDLGDISGINAS, from the HR2 region of SARS-CoV-2 spike.

The variants keep the light chain, the linker and the frameworks of Ab-14 (scFv order VH, three GGGGS repeats, VL).
VH: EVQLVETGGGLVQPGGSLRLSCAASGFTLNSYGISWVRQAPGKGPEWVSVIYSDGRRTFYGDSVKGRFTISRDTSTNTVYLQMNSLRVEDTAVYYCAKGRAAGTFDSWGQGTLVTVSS
VL: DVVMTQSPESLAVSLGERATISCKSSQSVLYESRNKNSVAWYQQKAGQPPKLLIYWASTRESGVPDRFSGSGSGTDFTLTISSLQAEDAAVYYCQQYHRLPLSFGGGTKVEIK

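The starting antibody came from a phage panning campaign against this peptide. This is the validation round: designs drawn from the data on random variants, tested in the same kind of assay. Group labels follow the data file (Ctrl: baseline library sampled from a position-specific scoring matrix, with some repeated check sequences; En: ensemble of fine-tuned language models; GP: Gaussian process model; GPLM: also part of the Gaussian process libraries; HC: hill climbing; Gen: genetic algorithm; Gibbs: Gibbs sampling; a sequence that several methods proposed may carry one label only). The scFvs were displayed on barcoded MATa yeast, the peptide on MATalpha yeast. The frequency of each diploid, read from paired DNA barcodes, reflects how well the two displayed proteins bind. A regression on co-assayed BCL2-family reference pairs converts the normalised counts of each replicate to an apparent Kd. The assay was run in six technical replicates.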

Substitutions are numbered in sequence along the VH above, starting at 1 (not Kabat).
This list holds designs with at most six substitutions.
Each Kd is an estimate from the mating assay, the geometric mean of the replicates in which the pair was seen; lower is stronger.
"nd" means that the variant was in the library but no mating with the target was seen in any replicate; the authors take this as a sign of poor binding, and no number exists.
Values of this round are not directly comparable with the first-round values of the same sequences.
Nonspecific signal, from three strains lacking the peptide, appeared in 1% of pairings of all heavy chain designs, centred on 120 nM (5% of these signals below 7.0 nM); values are not corrected for it.
Some sequences occur more than once in the pool; their replicates are pooled.
The parent sequence was in this pool as ten entries: three were never detected, three once, and four in most replicates, with averages from 2.2 nM to 240 nM.
In the paper, a design with two or fewer of six values counts as a poor binder.

With F27E/F59S [Ctrl] the result was 38 nM (5 of 6 replicates). With F27N/S31E/G61T/A101V [GP_HC] the result was 1.2 nM (6 of 6 replicates). With N30D/R56E/D106W [Ctrl] the result was nd (0 of 6 replicates). The variant T28K/S31E/F59W/G61I [GP_HC] gave 8.2 nM (6 of 6 replicates). The variant S31E/F59M/G61S [GPLM_HC] showed 14 nM (6 of 6 replicates).

For N30E/S63V/A101E [Ctrl], the assay gave nd (0 of 6 replicates). The variant T28S/G61H [GPLM_Gen] showed 7.9 nM (6 of 6 replicates). With T28E/S53A/R100E/S107K [GP_Gen] the result was 460 pM (6 of 6 replicates). With N30D/G61A/A101T [GPLM_Gen] the result was 2.4 nM (6 of 6 replicates). For T28D/R56K/S63A/A101T [GPLM_Gibbs], the assay gave 2.5 nM (4 of 6 replicates).

The variant T28Q/S31E/G61Q [GP_Gen] gave 4.2 nM (6 of 6 replicates). For N30E/S53A/S63G [GP_HC], the assay gave 7.2 nM (3 of 6 replicates). The variant S31D/R100T [Ctrl] showed 5.8 nM (6 of 6 replicates). With T28S/S31E/G61Q/G103V/S107Q [GP_HC] the result was nd (0 of 6 replicates). The variant S53A/R100H/S107F [GPLM_Gen] showed 3.6 nM (6 of 6 replicates).

The variant T28W/S31E/A101E/S107T [GP_Gen] showed 3.5 nM (6 of 6 replicates). The variant T28E/S31T/R100K [GPLM_Gen] gave 21 nM (6 of 6 replicates). With D106S/S107D [Ctrl] the result was nd (0 of 6 replicates). With T28E/G61D/R100D [GP_Gibbs] the result was 7.4 nM (6 of 6 replicates). The variant T28D/S31E/S53A/G61A/R100E/S107M [En_HC] showed 76 pM (6 of 6 replicates).

For T28E/G61I/R100W/S107K [GP_Gibbs], the assay gave 5.5 nM (3 of 6 replicates). For S31E/R100K/S107C [GP_HC], the assay gave nd (0 of 6 replicates). The variant S31Q/G61A/R100Q [GPLM_HC] gave 2.4 nM (6 of 6 replicates). With T28D/A101E/T104I/D106N [GPLM_HC] the result was nd (0 of 6 replicates). For S31E/R56M/S63A/A101T [GP_Gibbs], the assay gave 2.5 nM (6 of 6 replicates).

With S53A/A101I/D106K [GP_HC] the result was 5.8 nM (6 of 6 replicates). For G26K/F27R/L29I/S31D/G55Q/A101N [Ctrl], the assay gave nd (0 of 6 replicates). With T28S/G61S/R100S [GPLM_Gen] the result was 1.2 nM (6 of 6 replicates). The variant N30A/F59M/G61I/V64T/R100G [Ctrl] showed nd (0 of 6 replicates). For T28E/S31E/A101T/S107A [GP_Gen], the assay gave 220 pM (4 of 6 replicates).

The variant T28D/R56K/A101N [GPLM_Gibbs] showed 1.4 nM (6 of 6 replicates). The variant G61Q/S63D/R100E/D106K [GP_HC] gave 120 nM (5 of 6 replicates). The variant G61S/R100V/G103D [GP_HC] gave nd (0 of 6 replicates). The variant G61S/R100E/S107T [GPLM_Gen] gave 2.1 nM (6 of 6 replicates). The variant G61I/A101I [Ctrl+GP_HC] showed 29 nM (4 of 12 replicates).

The variant T28E/S31E/G61T/R100K [GP_Gen] gave 3.6 nM (6 of 6 replicates).

Picked from the list: the 3 lowest averages where every replicate gave a value.

| changes | group | apparent Kd | seen in |
|---|---|---|---|
| T28D/S31E/S53A/G61A/R100E/S107M | En_HC | 76 pM | 6 of 6 |
| T28E/S53A/R100E/S107K | GP_Gen | 460 pM | 6 of 6 |
| T28S/G61S/R100S | GPLM_Gen | 1.2 nM | 6 of 6 |